Experiment [1] addresses hMC4R PRESTO-Tango plasmid construct (human) (UniProt P32245).
The target of experiment [2] is human melanocortin-4 receptor (hMC4R-Flag) (human) (UniProt P32245).

Chains of the proteins cited; added tags and fusions are not shown.
UniProt P32245, whole entry: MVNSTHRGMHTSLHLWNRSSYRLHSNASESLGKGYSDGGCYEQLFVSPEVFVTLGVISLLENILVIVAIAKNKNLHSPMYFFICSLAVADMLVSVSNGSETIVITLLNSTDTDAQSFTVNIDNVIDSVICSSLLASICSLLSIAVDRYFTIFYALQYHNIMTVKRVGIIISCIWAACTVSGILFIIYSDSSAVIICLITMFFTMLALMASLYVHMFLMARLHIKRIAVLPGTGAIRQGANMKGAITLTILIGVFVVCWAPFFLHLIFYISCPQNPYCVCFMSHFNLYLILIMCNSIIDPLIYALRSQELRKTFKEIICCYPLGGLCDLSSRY

B1: CJL-1–14 (Ac-His-DPhe-Arg-Trp-NH2) (peptide)
peptide: HFRW
modifications: N-terminal acetyl; D-Phe at 2; C-terminal amide
Consider B1, for which the β-arrestin2 recruitment to hMC4R, EC50 (PRESTO-Tango) in experiment [1] was 290 nM. The cAMP signaling EC50 (AlphaScreen, HEK293 cells stably expressing hMC4R) in experiment [2] is 1.8 nM.

Source of the values: publication PMC6226371 (Journal of medicinal chemistry, 2018).
